Assay results as given in ChEMBL document CHEMBL1126295, “p-(Methylsulfinyl)phenyl nitrogen mustard as a novel bioreductive prodrug selective against hypoxic tumors” (1992).

What was measured:
Mus musculus = species on record: Mus musculus; assay: The compound was evaluated for the cytotoxicity against BALB/c 3T3 mouse fibroblasts
B16-F10 = assay: The compound was evaluated for the cytotoxicity against B16-F10 murine melanoma cells.
CHO [1] = assay: The compound was evaluated for the cytotoxicity against CHO cells under normal aerobic condition.
CHO [2] = assay: The compound was evaluated for the cytotoxicity against CHO cells under hypoxic condition.

SMILES | pIC50 (Mus musculus) | pIC50 (B16-F10) | pIC50 (CHO [1]) | pIC50 (CHO [2])
CSc1ccc(N(CCCl)CCCl)cc1 | 5.92 | 4.93 | 5.46 | –
CS(=O)(=O)c1ccc(N(CCCl)CCCl)cc1 | 4.00 | – | – | –
C[S+]([O-])c1ccc(N(CCCl)CCCl)cc1 (stereo unspecified) | 4.73 | – | – | 4.05

pIC50: −log10 of the molar value.
